Assay results as given in patent US9782491B2, “Peptide conjugates for treating pain” (priority 2012, dated 2017).

Columns and labels:
[1] = molecular target: interaction between CaV2.2 and CRMP2 (Rattus norvegicus, UniProt P47942); assay: Immunoprecipitation with CaV2.2 antibody from rat dorsal root ganglia lysate, CRMP2 immunoblot; format: biochemical; details: 10 μM peptide added for 30 min; rat DRG
adult rat DRG neurons = assay: Fura-2 calcium imaging of K+-stimulated Ca2+ influx; format: cell-based; details: 20 min incubation; 3 μM and 30 μM (FIG. 1); 46.5 mM KCl

CC[C@H](C)[C@H](NC(=O)[C@H](Cc1c[nH]c2ccccc12)NC(=O)[C@H](CCC(=O)O)NC(=O)[C@H](CC(C)C)NC(=O)[C@@H](N)Cc1ccc(O)cc1)C(=O)N[C@@H](Cc1ccccc1)C(=O)N[C@@H](CCCCN)C(=O)N[C@@H](C)C(=O)N[C@@H](CCC(=O)O)C(=O)N[C@@H](CCC(=O)O)C(=O)N[C@H](C(=O)N[C@@H](CCSC)C(=O)N[C@@H](CC(C)C)C(=O)N[C@@H](C)C(=O)N[C@@H](CCC(=O)O)C(=O)O)C(C)C [L1, YLEWIFKAEEVMLAE]
amount of CRMP2 captured with CaV2.2 antibody [1]: reduced the amount of CRMP2 that could be captured | K+-stimulated [Ca2+]c influx (adult rat DRG neurons): concentration-dependent decrease
